Reference: US20110150767A1, “ALPHA-SUBSTITUTED AND ALPHA-UNSUBSTITUTED AROMATIC AMINO ACID DERIVATIVES AND COMPOSITIONS THEREOF FOR USE TO TREAT, DIAGNOSE, OR MONITOR A MEDICAL CONDITION” (priority 2009, published 2011)

Sequences of proteins named here, by UniProt entry; tags and fusion partners are left off. Residues count along the entry.
UniProt Q9UHI5, whole entry: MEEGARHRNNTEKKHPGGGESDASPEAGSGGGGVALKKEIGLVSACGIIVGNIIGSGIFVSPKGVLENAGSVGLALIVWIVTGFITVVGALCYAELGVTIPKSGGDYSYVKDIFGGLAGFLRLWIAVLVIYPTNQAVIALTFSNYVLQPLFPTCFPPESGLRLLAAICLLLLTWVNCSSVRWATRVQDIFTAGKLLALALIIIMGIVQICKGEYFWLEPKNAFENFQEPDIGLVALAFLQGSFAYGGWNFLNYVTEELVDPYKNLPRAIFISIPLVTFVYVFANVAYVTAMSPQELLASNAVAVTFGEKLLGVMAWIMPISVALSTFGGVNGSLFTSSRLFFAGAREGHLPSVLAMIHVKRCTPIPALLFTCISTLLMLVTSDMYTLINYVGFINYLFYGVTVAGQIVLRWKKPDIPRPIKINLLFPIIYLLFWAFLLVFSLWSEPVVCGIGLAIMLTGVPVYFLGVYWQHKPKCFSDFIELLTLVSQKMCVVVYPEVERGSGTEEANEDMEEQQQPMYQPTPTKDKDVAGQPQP
UniProt Q01650, whole entry: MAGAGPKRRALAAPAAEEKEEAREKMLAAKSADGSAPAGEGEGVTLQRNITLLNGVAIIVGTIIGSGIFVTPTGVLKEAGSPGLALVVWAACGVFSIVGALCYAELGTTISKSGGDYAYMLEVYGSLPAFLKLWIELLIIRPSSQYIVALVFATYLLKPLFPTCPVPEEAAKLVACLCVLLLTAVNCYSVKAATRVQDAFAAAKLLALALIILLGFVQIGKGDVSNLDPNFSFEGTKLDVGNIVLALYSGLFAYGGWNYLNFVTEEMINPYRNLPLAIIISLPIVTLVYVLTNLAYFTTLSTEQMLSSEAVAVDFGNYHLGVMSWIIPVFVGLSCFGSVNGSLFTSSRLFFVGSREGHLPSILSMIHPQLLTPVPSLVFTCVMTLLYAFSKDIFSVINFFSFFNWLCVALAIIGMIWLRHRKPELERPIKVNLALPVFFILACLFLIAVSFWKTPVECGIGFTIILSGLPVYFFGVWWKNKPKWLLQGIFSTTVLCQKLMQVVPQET
UniProt P08195, 102-630 partner: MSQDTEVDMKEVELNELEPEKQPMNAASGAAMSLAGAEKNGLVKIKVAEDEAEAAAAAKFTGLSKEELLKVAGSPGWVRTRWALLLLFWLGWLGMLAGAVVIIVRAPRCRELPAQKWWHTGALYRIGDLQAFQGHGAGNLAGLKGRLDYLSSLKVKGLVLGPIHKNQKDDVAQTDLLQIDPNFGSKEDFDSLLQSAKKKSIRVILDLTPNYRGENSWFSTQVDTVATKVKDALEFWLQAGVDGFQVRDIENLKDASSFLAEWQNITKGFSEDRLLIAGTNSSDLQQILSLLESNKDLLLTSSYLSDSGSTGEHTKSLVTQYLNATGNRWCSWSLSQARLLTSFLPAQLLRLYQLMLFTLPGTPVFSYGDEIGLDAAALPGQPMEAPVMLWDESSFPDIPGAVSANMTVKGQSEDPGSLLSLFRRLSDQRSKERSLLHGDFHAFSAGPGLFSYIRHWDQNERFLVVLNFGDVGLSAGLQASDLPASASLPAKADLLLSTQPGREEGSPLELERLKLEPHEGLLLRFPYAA

How the values were obtained:
[1] = target: human L-type amino acid transporter 2 (LAT2; S2-hLAT2 cells) (Homo sapiens, UniProt Q9UHI5); test: Inhibition of L-[14C]leucine uptake in S2-LAT2 cells; settings: read-out: IC50 (μM) S2-LAT2, inhibition of 1.0 μM L-[14C]leucine uptake, 1.0 min, 37° C., NI = no inhibition at 100 μM, tested form: HCl
Procedure: (§1) The establishment and characterization of mammalian cell lines expressing human L-type amino acid transporterss (i.e. S2-hLAT1 and S2-hLAT2) has been previously described (Morimoto et al., Journal of Pharmacological Sciences, 2008, 108, 505-516).
(§2) General test procedures are as follows: All test compounds were dissolved in dimethyl sulfoxide (DMSO) to prepare stock solutions at the concentrations of 0.05, 0.5, 5.0 and 50 mM; next, these stock solutions were used and diluted with uptake solution to make final test concentrations of 0.10, 1.00, 10.0 and 100 μM, respectively. Therefore, all compounds used for uptake experiment were in uptake solution containing 0.2% DMSO; experiments are performed in triplicate for each concentration. For control uptake, only DMSO was added into the uptake solution to a final concentration of 0.2%.
(§3) S2-LAT1 and S2-LAT2 cells were seeded (1.3×10^5 cells/well) into 24-well plates and cultured at 33° C. (5% CO2) for 2-3 days until confluent (90%-100% confluence). Uptake experiments were performed at 37° C. The culture medium was removed and washed 3 times with uptake solution (37° C.; Hank's Na^+ free buffer consisting of 125 mM choline chloride, 4.8 mM KCl, 1.3 mM CaCl2, 1.2 mM MgCl2, 25.0 mM HEPES, and 5.0 mM Tris, pH 7.4, supplemented with D-glucose (5.6 mM). The cells were equilibrated in uptake solution (300 μL; 37° C.) for 12 min. The equilibrated solution was removed and uptake solution containing radio-labeled compound (1.0 μM L-[^14C] Leucine) with or without test compound (300 μL) was added to the cells (1.0 min). The test solution was removed and the cells washed 3 times with ice-cold uptake solution. The cells are then solubilized with 0.1N NaOH (0.5 mL) and transferred to scintillation vials. Liquid scintillation fluid (3.0 mL; aquasol-2) was added, mixed and substrate accumulation was measured by counting radioactivity via liquid scintillation counting (LSC; LSC6100, Aloka, Tokyo). The uptake value and % of inhibition were calculated to afford IC50 values.

[2] = target: human L-type amino acid transporter 1 (LAT1; S2-hLAT1 cells) (Homo sapiens, UniProt Q01650); test: Inhibition of L-[14C]leucine uptake in S2-LAT1 cells; settings: read-out: IC50 (μM) S2-LAT1, inhibition of 1.0 μM L-[14C]leucine uptake, 1.0 min, 37° C., NI = no inhibition at 100 μM, tested form: HCl
Procedure: as §1, §2, §3

## N[C@@H](Cc1cc(Br)c(OCc2ccc(Cl)cc2)c(Br)c1)C(=O)O
[1]
  IC50: 40.3 µM
[2]
  IC50: 15.5 µM

## N[C@@H](Cc1cc(Br)c(OCCc2ccccc2F)c(Br)c1)C(=O)O
[1]
  IC50: 91.9 µM
[2]
  IC50: 37.1 µM

## COc1ccc(COc2c(I)cc(C[C@H](N)C(=O)O)cc2I)cc1OC
[1]
  IC50: 95.6 µM
[2]
  IC50: 19.2 µM

## COc1ccc(COc2c(I)cc(C[C@H](N)C(=O)O)cc2I)c(OC)n1
[1]
  IC50: > 100 µM
[2]
  IC50: 15.4 µM

## COc1ccc(COc2c(I)cc(C[C@H](N)C(=O)O)cc2I)cc1
[1]
  IC50: > 100 µM
[2]
  IC50: 18.6 µM

## COc1ccc(CCOc2c(I)cc(C[C@H](N)C(=O)O)cc2I)cc1
[1]
  IC50: > 100 µM
[2]
  IC50: 4.4 µM

## COc1ccc(CCOc2c(Cl)cc(C[C@H](N)C(=O)O)cc2Cl)cc1
[1]
  IC50: > 100 µM
[2]
  IC50: 25.3 µM

## COc1ccccc1COc1c(I)cc(C[C@H](N)C(=O)O)cc1I
[1]
  IC50: > 100 µM
[2]
  IC50: 17.8 µM

## N[C@@H](Cc1cc(Cl)c(OCCc2ccc(OC(F)(F)F)cc2)c(Cl)c1)C(=O)O
[1]
  IC50: > 100 µM
[2]
  IC50: 7.7 µM

## N[C@@H](Cc1cc(Br)c(OCCc2ccc([N+](=O)[O-])cc2)c(Br)c1)C(=O)O
[1]
  IC50: > 100 µM
[2]
  IC50: 19.5 µM

## N[C@@H](Cc1cc(Cl)c(OCc2ccncc2)c(Cl)c1)C(=O)O
[1]
  IC50: > 100 µM
[2]
  IC50: > 100 µM

## N[C@@H](Cc1cc(Cl)c(OCCc2ccccc2C(F)(F)F)c(Cl)c1)C(=O)O
[1]
  IC50: > 100 µM
[2]
  IC50: > 100 µM

## N[C@@H](Cc1cc(Br)c(OCc2ccc(F)cc2)c(Br)c1)C(=O)O
[1]
  IC50: 42.5 µM
[2]
  IC50: 33.4 µM

## COc1cccc(COc2c(I)cc(C[C@H](N)C(=O)O)cc2I)c1OC
[1]
  IC50: > 100 µM
[2]
  IC50: 52.8 µM

## N[C@@H](Cc1cc(I)c(OCc2cc(C(F)(F)F)ccc2C(F)(F)F)c(I)c1)C(=O)O
[1]
  IC50: > 100 µM
[2]
  IC50: > 100 µM

## N[C@@H](Cc1cc(I)c(OCc2ccc(F)cc2)c(I)c1)C(=O)O
[1]
  IC50: 11.1 µM
[2]
  IC50: 10 µM

## COc1ccc(COc2c(Br)cc(C[C@H](N)C(=O)O)cc2Br)cc1[N+](=O)[O-]
[1]
  IC50: > 100 µM
[2]
  IC50: > 100 µM

## N[C@@H](Cc1cc(Br)c(OCc2ccccc2F)c(Br)c1)C(=O)O
[1]
  IC50: 69.1 µM
[2]
  IC50: > 100 µM

## N[C@@H](Cc1cc(I)c(OCCCc2ccccn2)c(I)c1)C(=O)O
[1]
  IC50: > 100 µM
[2]
  IC50: > 100 µM

## COc1cccc(CCOc2c(Cl)cc(C[C@H](N)C(=O)O)cc2Cl)c1
[1]
  IC50: 86.7 µM
[2]
  IC50: 4.2 µM

## COc1cccc(COc2c(Br)cc(C[C@H](N)C(=O)O)cc2Br)c1OC
[1]
  IC50: > 100 µM
[2]
  IC50: 27.5 µM

## COc1cccc(CCOc2c(I)cc(C[C@H](N)C(=O)O)cc2I)c1
[1]
  IC50: > 100 µM
[2]
  IC50: 7.1 µM

## N[C@@H](Cc1cc(Cl)c(OCc2ccccc2C(F)(F)F)c(Cl)c1)C(=O)O
[1]
  IC50: > 100 µM
[2]
  IC50: 19.4 µM

## N[C@@H](Cc1cc(Cl)c(OCCc2ccccc2F)c(Cl)c1)C(=O)O
[1]
  IC50: 56 µM
[2]
  IC50: 35.1 µM

## N[C@@H](Cc1cc(I)c(OCc2ccccn2)c(I)c1)C(=O)O
[1]
  IC50: > 100 µM
[2]
  IC50: 8 µM

## N[C@@H](Cc1cc(Br)c(OCCc2ccc(OC(F)(F)F)cc2)c(Br)c1)C(=O)O
[1]
  IC50: > 100 µM
[2]
  IC50: 8.3 µM

## N[C@@H](Cc1cc(I)c(OCc2ccccc2C(F)(F)F)c(I)c1)C(=O)O
[1]
  IC50: > 100 µM
[2]
  IC50: 122 µM

## N[C@@H](Cc1cc(Cl)c(OCCc2ccc(F)cc2)c(Cl)c1)C(=O)O
[1]
  IC50: > 100 µM
[2]
  IC50: 34.5 µM

## N[C@@H](Cc1cc(I)c(OCc2ccc(C(F)(F)F)cc2)c(I)c1)C(=O)O
[1]
  IC50: 7.7 µM
[2]
  IC50: 84.7 µM

## COc1ccc(CCOc2c(Br)cc(C[C@H](N)C(=O)O)cc2Br)cc1OC
[1]
  IC50: > 100 µM
[2]
  IC50: 3.9 µM

## COc1ccc(COc2c(Cl)cc(C[C@H](N)C(=O)O)cc2Cl)cc1
[1]
  IC50: 59.7 µM
[2]
  IC50: 16.8 µM

## N[C@@H](Cc1cc(Br)c(OCCc2ccc(F)cc2)c(Br)c1)C(=O)O
[1]
  IC50: > 100 µM
[2]
  IC50: 42.3 µM

## N[C@@H](Cc1cc(I)c(OCCc2ccccn2)c(I)c1)C(=O)O
[1]
  IC50: > 100 µM
[2]
  IC50: 27.3 µM

## N[C@@H](Cc1cc(I)c(OCc2cc(C(F)(F)F)cc(C(F)(F)F)c2)c(I)c1)C(=O)O
[1]
  IC50: > 100 µM
[2]
  IC50: > 100 µM

## N[C@@H](Cc1cc(Br)c(OCc2ccc(F)cc2F)c(Br)c1)C(=O)O
[1]
  IC50: 43.8 µM
[2]
  IC50: 38.5 µM

## N[C@@H](Cc1cc(I)c(OCc2ccncc2)c(I)c1)C(=O)O
[1]
  IC50: > 100 µM
[2]
  IC50: 57 µM

## COc1cc(Cl)ccc1COc1c(Br)cc(C[C@H](N)C(=O)O)cc1Br
[1]
  IC50: > 100 µM
[2]
  IC50: 6.7 µM

## COc1ccc(COc2c(Br)cc(C[C@H](N)C(=O)O)cc2Br)c(OC)n1
[1]
  IC50: 87.5 µM
[2]
  IC50: 5.2 µM

## COc1ccccc1COc1c(Cl)cc(C[C@H](N)C(=O)O)cc1Cl
[1]
  IC50: 93.6 µM
[2]
  IC50: 5.8 µM

## N[C@@H](Cc1cc(Cl)c(OCCc2cccc(C(F)(F)F)c2)c(Cl)c1)C(=O)O
[1]
  IC50: > 100 µM
[2]
  IC50: 13.2 µM

## N[C@@H](Cc1cc(I)c(OCc2cccc(C(F)(F)F)c2)c(I)c1)C(=O)O
[1]
  IC50: > 100 µM
[2]
  IC50: 40.5 µM

## N[C@@H](Cc1cc(I)c(OCCc2ccccc2F)c(I)c1)C(=O)O
[1]
  IC50: > 100 µM
[2]
  IC50: 54.5 µM

## N[C@@H](Cc1cc(Br)c(OCc2cc(F)c(F)c(F)c2)c(Br)c1)C(=O)O
[1]
  IC50: > 100 µM
[2]
  IC50: 59.5 µM

## N[C@@H](Cc1cc(I)c(OCc2ccccc2F)c(I)c1)C(=O)O
[1]
  IC50: 7.4 µM
[2]
  IC50: 29.8 µM

## N[C@@H](Cc1cc(Cl)c(OCc2ccc([N+](=O)[O-])cc2)c(Cl)c1)C(=O)O
[1]
  IC50: 23.1 µM
[2]
  IC50: 62.4 µM

## N[C@@H](Cc1cc(Cl)c(OCCc2cccc(F)c2)c(Cl)c1)C(=O)O
[1]
  IC50: 61.3 µM
[2]
  IC50: 37.4 µM

## COc1ccc(COc2c(Br)cc(C[C@H](N)C(=O)O)cc2Br)cc1OC
[1]
  IC50: 130 µM
[2]
  IC50: 23.3 µM

## N[C@@H](Cc1cc(Cl)c(OCc2cccnc2)c(Cl)c1)C(=O)O
[1]
  IC50: > 100 µM
[2]
  IC50: 106 µM

## N[C@@H](Cc1cc(Br)c(OCc2cccnc2)c(Br)c1)C(=O)O
[1]
  IC50: > 100 µM
[2]
  IC50: > 100 µM

## N[C@@H](Cc1cc(I)c(OCCc2ccccc2C(F)(F)F)c(I)c1)C(=O)O
[1]
  IC50: > 100 µM
[2]
  IC50: > 100 µM

## COc1ccc(COc2c(Br)cc(C[C@H](N)C(=O)O)cc2Br)c(C)c1C
[1]
  IC50: > 100 µM
[2]
  IC50: 18.1 µM

## N[C@@H](Cc1cc(Br)c(OCc2ccc3c(c2)OCO3)c(Br)c1)C(=O)O
[1]
  IC50: > 100 µM
[2]
  IC50: 22 µM

## N[C@@H](Cc1cc(Br)c(OCc2ccncc2)c(Br)c1)C(=O)O
[1]
  IC50: > 100 µM
[2]
  IC50: > 100 µM

## N[C@@H](Cc1cc(Cl)c(OCc2ccc(F)c(F)c2)c(Cl)c1)C(=O)O
[1]
  IC50: > 100 µM
[2]
  IC50: > 100 µM

## COc1ccc(COc2c(Br)cc(C[C@H](N)C(=O)O)cc2Br)c(OC)c1OC
[1]
  IC50: > 100 µM
[2]
  IC50: 12.1 µM

## CCOc1ccc(COc2c(Br)cc(C[C@H](N)C(=O)O)cc2Br)cc1OCC
[1]
  IC50: 35.7 µM
[2]
  IC50: 2.6 µM

## CCOc1ccc(COc2c(Br)cc(C[C@H](N)C(=O)O)cc2Br)c(OCC)c1
[1]
  IC50: 28.7 µM
[2]
  IC50: 1.4 µM
